# Only a part is listed here, and it is no random draw. Activity calls are given as the source filed them.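 The calls were made as follows: active = at 10 µM dose, at least 30% inhibition, measured as corrected fluorescence normalized to stimulator and neutral control wells; inactive = the rest.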
# By UniProt entry, the sequences of proteins in these tests, tags left out.
# UniProt Q96SD1, whole entry, looked up: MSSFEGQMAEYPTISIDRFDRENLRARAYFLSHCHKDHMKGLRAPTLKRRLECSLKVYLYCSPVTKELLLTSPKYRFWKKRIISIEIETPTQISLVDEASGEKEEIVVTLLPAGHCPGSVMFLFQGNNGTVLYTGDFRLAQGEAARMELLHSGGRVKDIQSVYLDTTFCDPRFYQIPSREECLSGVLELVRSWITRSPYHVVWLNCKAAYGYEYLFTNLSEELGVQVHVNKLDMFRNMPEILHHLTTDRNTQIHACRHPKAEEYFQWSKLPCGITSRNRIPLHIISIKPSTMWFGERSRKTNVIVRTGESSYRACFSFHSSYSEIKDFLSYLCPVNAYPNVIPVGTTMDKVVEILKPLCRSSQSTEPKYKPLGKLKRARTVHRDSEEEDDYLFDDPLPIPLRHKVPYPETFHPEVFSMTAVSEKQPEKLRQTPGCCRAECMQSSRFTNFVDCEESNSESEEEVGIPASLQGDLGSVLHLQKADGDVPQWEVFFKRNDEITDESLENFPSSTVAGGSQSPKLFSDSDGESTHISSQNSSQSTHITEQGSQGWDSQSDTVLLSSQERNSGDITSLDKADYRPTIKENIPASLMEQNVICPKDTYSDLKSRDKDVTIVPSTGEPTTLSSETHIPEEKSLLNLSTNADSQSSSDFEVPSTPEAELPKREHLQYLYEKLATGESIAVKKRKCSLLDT
# Target: Protein artemis (Homo sapiens) (UniProt Q96SD1)
# Assay: Artemis endonuclease inhibitors, primary screen, biochemical, fluorescence intensity, FAM/BHQ-1 hairpin substrate (AID 686954)
# Details: recombinant Artemis, quenched FAM hairpin cleavage fluorescence; at 10 µM; stronger effect = higher value
row,Structure (SMILES),inhibition
1,O=C(COc1ccccc1)OC1CN2CCC1CC2 (stereo not given),inactive: -2.9%
2,CCN(CC)C(=S)SC(NC=O)C(Cl)(Cl)Cl (stereo not given),inactive: 3.65%
3,Cc1cccc(OCC(=O)OC2CN3CCC2CC3)c1 (stereo not given),inactive: 1.57%
4,Cc1ccc(OCC(=O)OC2CN3CCC2CC3)cc1 (stereo not given),inactive: 9.99%
5,O=P(Nc1nccs1)(c1ccccc1)c1ccccc1,inactive: 2.66%
6,CCC(=O)N1C2C3N(C(=O)CC)C1C1N(C(=O)CC)C(C(N1C(=O)CC)N3C(=O)CC)N2C(=O)CC,inactive: -1.32%
7,CN1CCCC(OC(=O)C(c2ccccc2)c2ccccc2)C1 (stereo not given),inactive: -8.79%
8,CCOP(=O)(Nc1ccccc1)OCC,inactive: 3.58%
9,CC(=O)N1C2C3N(C(C)=O)C1C1N(C(C)=O)C(C(N1C(C)=O)N3C(C)=O)N2C(C)=O,inactive: 5.67%
10,CC1CCN(C(=O)Oc2c(Cl)cc(Cl)c3cccnc23)CC1,inactive: 0.37%
